Read-outs that look alike come from different tables or passages of the source.
Test system: Lactobacillus malefermentans (ATCC 11305)
Details: 185 F. water, 5-min contact

Measured: Filter Survivors

O [185 F. Water, water]
<1 CFU: BUNA N coupon, pH 2.3 phosphoric acid 104 F. 2 weeks | BUNA N coupon, pH 13 caustic 185 F. 2 weeks | Silicon Rubber coupon, pH 2.3 phosphoric acid 104 F. 2 weeks | Silicon Rubber coupon, pH 13 caustic 185 F. 2 weeks | Stainless Steel coupon, no pre-treatment

Source: patent US6991685B2, “Low temperature cleaning” (Ecolab Inc., priority 2003, dated 2006)
